Reference: patent US5424292A (Depha Team s.r.l., priority 1990, dated 1995)

Conditions: male Fischer rats, doses equivalent to 60 mg/kg of 5-ASA via metal probe into stomach; for Recovery percentages of 5-ASA + N-acetyl-5-ASA in feces by HPLC: feces withdrawn at 2 hour intervals for 48 hours; for Recovery percentages of 5-ASA + N-acetyl-5-ASA in urine by HPLC: urine withdrawn at 2 hour intervals for 48 hours

Q: What does the source list for “5-aminosalicyl L-proline-L-leucine [Compound 4]”?
A: Recovery percentages of 5-ASA + N-acetyl-5-ASA in feces by HPLC: 25 ± 4%; Recovery percentages of 5-ASA + N-acetyl-5-ASA in urine by HPLC: 53 ± 3%

Q: For “(N-L-aspartyl)-amino-2-salicylic acid [Compound 3]”, which “Recovery percentages of 5-ASA + N-acetyl-5-ASA in feces by HPLC” value is on record?
A: 46 ± 3%

Q: And the “Recovery percentages of 5-ASA + N-acetyl-5-ASA in urine by HPLC” value?
A: 33 ± 3%
